Biological target: human SSTR-4 (Homo sapiens, UniProt P31391)
Assay: Somatostatin receptor binding assay, hSSTR-4
Source text: The human SSTR-1, SSTR-2, SSTR-3, SSTR-4, and SSTR-5 cDNA clones have been described (SSTR-1 and SSTR-2 in Yamada, Y., et al., Proc. Natl. Acad. Sci. USA., 89:251-255 (1992); SSTR-3 in Yamade, et al., Mol. Endocrinol. 6:2136-2142 (1993); and SSTR-4 and SSTR-5 in Yamada, et al., Biochem. Biophys. Res. Commun. 195:844-852 (1993)) and are also available from American Type Culture Collection (ATCC, Rockville, Md.) (ATCC Nos. 79044 (SSTR-1), 79046 (SSTR-2), and 79048 (SSTR-3)). […] Restriction endonucleases are available from New England Biolabs (Beverly, Mass.). This cDNA fragment was inserted into the mammalian expression vector, pCMV (Russell, D., et al., J. Biol. Chem., 264:8222-8229 (1989)), using standard molecular biology techniques (see e.g., Maniatis, T., et al., Molecular Cloning--A Laboratory Manual, Cold Spring Harbor Laboratory, 1982) to produce the expression plasmid, pCMV-human SSTR-1 through pCMV-human SSTR-5. Other mammalian expression vectors include pcDNA1/Amp (Invitrogen, Sandlesy, Calif.). The expression plasmids were introduced into the suitable bacterial host, E. Coli HB101 (Stratagene, La Jolla, Calif.) and plasmid DNAs, for transfection, were prepared on Cesium Chloride gradients.
CHO-K1 (ovary, Chinese hamster) cells were obtained from ATCC (ATCC No. CCL 61). […]

By UniProt entry, the sequences of proteins in these tests, tags left out. Where a name states a change or a piece, a line headed by the entry shows the natural chain unless it says otherwise.
UniProt P31391: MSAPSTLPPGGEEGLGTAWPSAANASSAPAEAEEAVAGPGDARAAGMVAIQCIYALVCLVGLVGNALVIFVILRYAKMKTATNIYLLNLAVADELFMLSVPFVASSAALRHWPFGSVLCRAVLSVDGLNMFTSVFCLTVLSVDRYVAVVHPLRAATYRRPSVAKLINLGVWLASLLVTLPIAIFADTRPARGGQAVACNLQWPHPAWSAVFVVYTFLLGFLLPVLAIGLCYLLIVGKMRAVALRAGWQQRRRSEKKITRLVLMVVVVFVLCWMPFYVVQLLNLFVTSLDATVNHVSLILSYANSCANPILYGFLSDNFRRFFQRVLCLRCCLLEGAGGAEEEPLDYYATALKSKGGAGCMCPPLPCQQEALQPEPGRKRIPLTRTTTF

Ki: 20 nM
Compound: C[C@@H](O)[C@@H]1NC(=O)[C@H](CCCCN)NC(=O)[C@@H](Cc2c[nH]c3ccccc23)NC(=O)[C@H](Cc2ccccc2)NC(=O)[C@H](Cc2ccccc2)NC(=O)[C@@H](N)CSSC[C@@H](C(N)=O)NC(=O)[C@H](Cc2ccccc2)NC1=O [BM-23268, H-Cys-Phe-Phe-D-Trp-Lys-Thr-Phe-Cys-NH2]

Source: patent US5686418A, “Prolonging survival of transplanted pancreatic cells” (Biomeasure Incorporated, priority 1996, dated 1997)
